Seven compounds from patent US20140303164A1, “THERAPEUTIC COMPOUNDS” (Gilead Sciences, Inc., priority 2013, published 2014) can be followed below.

Broadly, the CC50 is the concentration at which the toxic effect on the cells reaches its halfway point.

The nature of this series: Test B: Cytotoxicity Assay. The note with it: human, uninfected MT-4 cells, same protocol as Test A. The format is cell-based. The protocol: MT-4 cells were next mixed with HIV-IIIb at an m.o.i of 0.003 for 1 hour, after which time 35 μL of virus/cell mixture (2000 cells) was immediately added to each well containing 40 μL of diluted compound. The plates were then incubated at 37° C. for 5 days. After 5 days of incubation, 25 μl of 2× concentrated CellTiter-Glo™ Reagent (catalog #G7571, Promega Biosciences, Inc., Madison, Wis.) was added to each well containing MT-4 cells. Cell lysis was carried out by incubating at room temperature for 10 min and then chemiluminescence was read.
Test B: Cytotoxicity Assay
Compound cytotoxicity and the corresponding CC50 values was determined using the same protocol as described in the antiviral assay (Test A) except that uninfected cells were used.

As for `Cn1nc(NS(C)(=O)=O)c2c(Cl)ccc(-c3ccc(C#CC(C)(C)O)nc3[C@H](Cc3cc(F)cc(F)c3)NC(=O)Cn3nc(C(F)F)c4c3C(F)(F)[C@@H]3C[C@H]43)c21` [Compound 19G, (S)—N-(1-(3-(4 chloro-1-methyl-3-(methylsulfonamido)-1H-indazol-7-yl)-6-(3-hydroxy-3-methylbut-1-ynyl)pyridin-2-yl)-2-(3,5-difluorophenyl)ethyl)-2-((3bS,4aR)-5,5-difluoro-3-(difluoromethyl)-3b,4,4a,5-tetrahydro-1H-cyclopropa[3,4]cyclopenta[1,2-c]pyrazol-1-yl)acetamide], it took 19.6 µM to reach half-maximal cytotoxicity (CC50 at 5 days). In other words, the double-digit micromolar range.
In the case of `Cn1nc(NS(C)(=O)=O)c2c(F)ccc(-c3ccc(C#CC(C)(C)O)nc3[C@H](Cc3cc(F)cc(F)c3)NC(=O)Cn3nc(C(F)F)c4c3C(F)(F)[C@@H]3C[C@H]43)c21` [Compound 75, 2-((3b-S,4aR)-3-(difluoromethyl)-5,5-difluoro-3b,4,4a,5-tetrahydro-1H-cyclopropa[3,4]cyclopenta[1,2-c]pyrazol-1-yl)-N—((S)-2-(3,5-difluorophenyl)-1-(3-(4-fluoro-1-methyl-3-(methylsulfonamido)-1H-indazol-7-yl)-6-(3-hydroxy-3-methylbut-1-yn-1-yl)pyridin-2-yl)ethyl)acetamide] it was over 40.3 µM.
The value for `Cn1nc(NS(C)(=O)=O)c2c(Cl)ccc(-c3ccc(C#CC(C)(C)O)nc3[C@H](Cc3cc(F)cc(F)c3)NC(=O)Cn3nc(C(F)(F)F)c4c3C(F)(F)[C@@H]3C[C@H]43)c21` [Compound 78, N—((S)-1-(3-(4-chloro-1-methyl-3-(methylsulfonamido)-1H-indazol-7-yl)-6-(3-hydroxy-3-methylbut-1-yn-1-yl)pyridin-2-yl)-2-(3,5-difluorophenyl)ethyl)-2-((3b-S,4aR)-5,5-difluoro-3-(trifluoromethyl)-3b,4,4a,5-tetrahydro-1H-cyclopropa[3,4]cyclopenta[1,2-c]pyrazol-1-yl)acetamide] was 14.4 µM; that for `Cc1ccc(-c2ccc(C#CC(C)(C)O)nc2[C@H](Cc2cc(F)cc(F)c2)NC(=O)Cn2nc(C(F)F)c3c2C(F)(F)[C@@H]2C[C@H]32)c2c1c(NS(C)(=O)=O)nn2C` [Compound 112D, 2-((3b-S,4aR)-3-(difluoromethyl)-5,5-difluoro-3b,4,4a,5-tetrahydro-1H-cyclopropa[3,4]cyclopenta[1,2-c]pyrazol-1-yl)-N—((S)-2-(3,5-difluorophenyl)-1-(3-(1,4-dimethyl-3-(methylsulfonamido)-1H-indazol-7-yl)-6-(3-hydroxy-3-methylbut-1-yn-1-yl)pyridin-2-yl)ethyl)acetamide] was 13.9 µM; that for `COc1ccc(-c2ccc(C#CC(C)(C)O)nc2[C@H](Cc2cc(F)cc(F)c2)NC(=O)Cn2nc(C(F)F)c3c2C(F)(F)[C@@H]2C[C@H]32)c2c1c(NS(C)(=O)=O)nn2C` [Compound 141D, 2-((3b-S,4aR)-3-(difluoromethyl)-5,5-difluoro-3b,4,4a,5-tetrahydro-1H-cyclopropa[3,4]cyclopenta[1,2-c]pyrazol-1-yl)-N—((S)-2-(3,5-difluorophenyl)-1-(6-(3-hydroxy-3-methylbut-1-yn-1-yl)-3-(4-methoxy-1-methyl-3-(methylsulfonamido)-1H-indazol-7-yl)pyridin-2-yl)ethyl)acetamide] was 19.8 µM.
The value for `Cn1nc(NS(C)(=O)=O)c2c(Cl)ccc(-c3ccc(C#CC(C)(O)C(F)F)nc3[C@H](Cc3cc(F)cc(F)c3)NC(=O)Cn3nc(C(F)F)c4c3C(F)(F)[C@@H]3C[C@H]43)c21` (stereo partly drawn) [Compound 169, N-((1S)-1-(3-(4-chloro-1-methyl-3-(methylsulfonamido)-1H-indazol-7-yl)-6-(4,4-difluoro-3-hydroxy-3-methylbut-1-yn-1-yl)pyridin-2-yl)-2-(3,5-difluorophenyl)ethyl)-2-((3b-S,4aR)-3-(difluoromethyl)-5,5-difluoro-3b,4,4a,5-tetrahydro-1H-cyclopropa[3,4]cyclopenta[1,2-c]pyrazol-1-yl)acetamide] was 12.4 µM; that for `Cn1nc(N[S+](C)[O-])c2c(Cl)ccc(-c3ccc(C#CC(C)(C)O)nc3[C@H](Cc3cc(F)cc(F)c3)NC(=O)Cn3nc(C(F)F)c4c3C(F)(F)[C@@H]3C[C@H]43)c21` (stereo partly drawn) [Compound 180C, N-((1S)-1-(3-(4-chloro-1-methyl-3-(methylsulfinamido)-1H-indazol-7-yl)-6-(3-hydroxy-3-methylbut-1-yn-1-yl)pyridin-2-yl)-2-(3,5-difluorophenyl)ethyl)-2-((3b-S,4aR)-3-(difluoromethyl)-5,5-difluoro-3b,4,4a,5-tetrahydro-1H-cyclopropa[3,4]cyclopenta[1,2-c]pyrazol-1-yl)acetamide] was 21.3 µM.
